Reference: paper PMC2533787 (The Journal of Biological Chemistry, 2008)

How the values were obtained:
Assay in all cases: SPR
[1] = target: T1, bone morphogenetic protein-2 (UniProt P12643 283-396)
T1 sequence (looked up): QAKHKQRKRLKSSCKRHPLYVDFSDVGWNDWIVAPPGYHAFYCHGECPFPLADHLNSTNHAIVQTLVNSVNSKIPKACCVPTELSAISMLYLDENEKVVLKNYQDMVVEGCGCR

BMP-14 = target: T2, BMP-14 (UniProt P43026 382-501)
T2 sequence (looked up): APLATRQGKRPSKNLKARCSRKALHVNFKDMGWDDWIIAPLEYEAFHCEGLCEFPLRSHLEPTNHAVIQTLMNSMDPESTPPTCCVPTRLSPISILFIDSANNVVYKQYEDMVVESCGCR

[2] = target: T3, soluble receptor activator of NF-κB ligand (UniProt O14788 140-317)
T3 sequence (looked up): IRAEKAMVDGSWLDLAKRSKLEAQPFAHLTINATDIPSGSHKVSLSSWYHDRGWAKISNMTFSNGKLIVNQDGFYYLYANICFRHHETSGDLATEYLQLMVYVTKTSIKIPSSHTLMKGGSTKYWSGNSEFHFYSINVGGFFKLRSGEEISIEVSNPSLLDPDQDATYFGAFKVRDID

BMP-13 = target: T4, BMP-13 (UniProt Q6KF10 336-455)
T4 sequence (looked up): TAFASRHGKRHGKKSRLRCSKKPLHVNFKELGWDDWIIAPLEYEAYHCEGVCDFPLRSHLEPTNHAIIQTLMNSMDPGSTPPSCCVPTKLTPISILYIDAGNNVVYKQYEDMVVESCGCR

B1: Link_TSG6 (the Link module of human TSG-6) (domain or fragment, UniProt P98066 36-133, looked up)
chain: GVYHREARSGKYKLTYAEAKAVCEFEGGHLATYKQLEAARKIGFHVCAAGWMAKGRVGYPIVKPGPNCGFGKTGIIDYGIRLNRSERWDAYCYNPHAK
Kd [1]: 2.43 µM | Kd (BMP-14): 1.1 µM | Kd [2]: 8.25 µM | Kd (BMP-13): 2.84 µM
